{
  "source": "patent US20170371042A1",
  "about": "“CONTRAST AGENT FOR OPTICAL IMAGING, USE THEREOF AND APPARATUS USING THE SAME” (KYUNGPOOK NATIONAL UNIVERSITY INDUSTRY- ACADEMIC …, priority 2009, published 2017)",
  "system": "NIH3T6.7 tumor",
  "experiment": "Luminescence and microPET imaging using radioiodinated Herceptin",
  "type": "in vivo, nude mouse",
  "settings": "2 days after injection",
  "data": [
    {"substance": "^124I-labeled Herceptin: Herceptin (trastuzumab) antibody radioiodinated with ^124I at tyrosine residues using Iodo-Beads", "values": [
      {"measurement": "tumor visualization in luminescence imaging", "setting": "nude mouse, NIH3T6.7 tumor on shoulder and flank, 3.29 MBq, 1 min scan", "value": "Two tumor lesions were clearly visualized"},
      {"measurement": "tumor visualization in microPET image", "setting": "same mouse, 20 min scan", "value": "only the larger sized tumor (6×5 mm) on the shoulder was barely recognized"}
    ]}
  ]
}
